According to patent US9445606B2, “Use of 4-hydroxydihydrochalcones and their salts for enhancing an impression of sweetness” (SYMRISE AG, priority 2006, dated 2016):

Assays:
[1] = Enhancing the impression of sweetness of a solution containing a sweet-tasting substance (expert panel rating), sucrose; type: in vivo; details: 100 ppm substance, 5%; for % enhancement of the impression of sweetness: (b) with against (a) without; for Impression of sweetness (1-10) b) with: mean ± standard deviation
Experimental: In order to quantify the enhancement of an impression of sweetness by adding 4-hydroxydihydrochalcones to be used according to the invention, the sweetness of a solution containing a sweet-tasting substance and of samples containing the same amount of sweet-tasting substance and in addition a certain concentration of the 4-hydroxydihydrochalcones of the formula (I) to be used according to the invention was determined by a group of experts (classification 0 [extremely weaklysweet] to 10 [extremely sweet]). Evaluation was performed by calculating the enhancement (in %) of the impression of sweetness from the average values of the ratings for the solution containing the sweet-tasting substance (a) and for the solution containing the sweet-tasting substance and 4-dydroxydihydrochalcones (b).

[2] = Impression of sweetness of a sugar-reduced test solution (5% sucrose + compound against 6% sucrose); type: in vivo
Description: In order to quantify the retention of an impression of sweetness when replacing a proportion of sucrose with a small amount of 4-hydroxydihydrochalcones of the formula (I) being used in accordance with the invention, the sweetness (a) of a solution containing 6 wt. % of sucrose as compared with a solution containing 5 wt. % of sucrose and (b) or (c) of a solution containing 6 wt. % of sucrose as compared with a solution containing 5% of sucrose and a certain concentration of a 4-hydroxydihydrochalcone being used according to the invention was determined by a group of experts (classification 0 [not sweet] to 10 [extremely sweet]). Evaluation was performed by calculating the enhancement (in %) of the impression of sweetness from the average values of the estimates for the solutions of 6% sucrose (second column) and for the solutions containing 5% sucrose and optionally the 4-hydroxydihydrochalcone of the formula (I) being used according to the invention (third column).

Structure (SMILES): COc1cc(CCC(=O)c2c(O)cc(O)cc2O)ccc1O [compound 8, 3-(4-hydroxy-3-methoxyphenyl)-1-(2,4,6-trihydroxyphenyl)propan-1-one]
- total number of tasters / number of tasters who felt that test solution (b) was sweeter than test solution (a) [1]: 15/12
- % enhancement of the impression of sweetness [1]: +23%
- Impression of sweetness (1-10) b) with [1]: 6.5 ± 1.4
- total number of tasters / number of tasters who felt the 5 wt. % sucrose test solution with substance sweeter than 6 wt. % sucrose ([2]; 5% sucrose + 100 ppm substance): 15/4
- % enhancement of the impression of sweetness ([2]; 5% sucrose + 100 ppm substance against 6% sucrose): −11%
- Impression of sweetness (1-10) ([2]; 5% sucrose + 100 ppm substance, mean ± standard deviation): 4.9 ± 1.3

Structure (SMILES): COc1cc(CCC(=O)c2ccccc2O)ccc1O [compound 5, 3-(4-hydroxy-3-methoxyphenyl)-1-(2-hydroxyphenyl)propan-1-one]
- total number of tasters / number of tasters who felt that test solution (b) was sweeter than test solution (a) [1]: 16/13
- % enhancement of the impression of sweetness [1]: +24%
- Impression of sweetness (1-10) b) with [1]: 6.2 ± 1.7
